# Results taken from ChEMBL document CHEMBL3804826, “MALT1 Inhibitors May Potentially Treat Lymphomas and Autoimmune Disorders” (ACS Med Chem Lett, 2016).
# Amino acid sequences for entries named in this document (tags omitted).
# UniProt Q13489, whole entry: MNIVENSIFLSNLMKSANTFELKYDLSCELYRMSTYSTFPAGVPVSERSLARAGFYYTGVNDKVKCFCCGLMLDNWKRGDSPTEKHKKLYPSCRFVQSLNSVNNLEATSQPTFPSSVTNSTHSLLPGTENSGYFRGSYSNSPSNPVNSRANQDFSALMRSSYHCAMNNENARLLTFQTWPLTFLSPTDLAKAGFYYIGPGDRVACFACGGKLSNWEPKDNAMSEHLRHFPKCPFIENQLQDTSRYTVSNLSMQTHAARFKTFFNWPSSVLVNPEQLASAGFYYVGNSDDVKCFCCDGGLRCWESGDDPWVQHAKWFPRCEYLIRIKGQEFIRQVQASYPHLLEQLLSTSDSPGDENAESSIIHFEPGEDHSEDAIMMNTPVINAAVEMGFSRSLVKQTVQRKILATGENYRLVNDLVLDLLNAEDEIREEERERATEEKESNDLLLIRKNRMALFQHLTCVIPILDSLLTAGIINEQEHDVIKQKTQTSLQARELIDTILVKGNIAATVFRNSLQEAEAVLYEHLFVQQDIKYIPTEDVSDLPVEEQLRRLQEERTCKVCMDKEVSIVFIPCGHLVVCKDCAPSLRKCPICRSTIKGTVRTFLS
# Columns and labels:
# [1] = biological target: T1, Mucosa-associated lymphoid tissue lymphoma translocation protein 1 (Homo sapiens, UniProt Q9UDY8); assay: Inhibition of MALT1 (unknown origin) expressed in human Jurkat Clone K22 29Q_H23 cells assessed as IL2 production preincubated for 30 mins followed by PMA stimulation for 5.5 hrs by luciferase reporter gene assay; format: cell-based
# T1 sequence (Q9UDY8 whole entry): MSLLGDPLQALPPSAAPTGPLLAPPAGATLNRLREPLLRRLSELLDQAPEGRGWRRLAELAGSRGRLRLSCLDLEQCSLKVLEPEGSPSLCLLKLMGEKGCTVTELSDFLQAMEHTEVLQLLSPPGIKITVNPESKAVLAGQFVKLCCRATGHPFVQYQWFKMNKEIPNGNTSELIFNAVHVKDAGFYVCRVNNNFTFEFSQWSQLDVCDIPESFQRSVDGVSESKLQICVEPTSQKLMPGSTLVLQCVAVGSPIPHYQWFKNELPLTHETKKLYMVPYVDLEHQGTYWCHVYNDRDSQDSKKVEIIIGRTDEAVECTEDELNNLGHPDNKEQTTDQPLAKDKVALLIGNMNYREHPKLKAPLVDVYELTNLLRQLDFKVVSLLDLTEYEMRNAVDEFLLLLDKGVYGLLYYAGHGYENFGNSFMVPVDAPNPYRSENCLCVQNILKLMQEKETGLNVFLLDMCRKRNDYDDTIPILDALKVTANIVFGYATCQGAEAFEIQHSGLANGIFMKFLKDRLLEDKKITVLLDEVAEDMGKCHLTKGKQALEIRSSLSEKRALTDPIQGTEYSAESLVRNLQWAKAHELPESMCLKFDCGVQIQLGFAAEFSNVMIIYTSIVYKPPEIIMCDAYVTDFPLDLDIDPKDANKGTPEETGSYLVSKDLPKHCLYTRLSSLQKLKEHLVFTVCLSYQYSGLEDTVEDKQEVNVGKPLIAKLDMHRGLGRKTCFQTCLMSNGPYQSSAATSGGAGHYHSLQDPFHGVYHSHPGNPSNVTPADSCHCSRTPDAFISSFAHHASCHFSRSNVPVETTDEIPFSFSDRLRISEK
# [2] = biological target: Baculoviral IAP repeat-containing protein 3/Mucosa-associated lymphoid tissue lymphoma translocation protein 1 (Homo sapiens, UniProt Q13489+Q9UDY8); assay: Inhibition of cIAP2-MALT1 (unknown origin) expressed in HEK293 cells assessed as inhibition of NFkappaB signaling after 24 hrs by luciferase reporter gene assay; format: cell-based
smiles,measurement,setting,value
O=C(Nc1cnc(-n2nccn2)c(C(F)(F)F)c1)Nc1cnc2cc(Cl)nn2c1C1CCCO1 (configuration not stated),IC50,[1],94 nM
same,IC50,[2],117 nM
